Data reported in patent publication US8530470B2, “Chromenone derivatives” (Astrazeneca AB, priority 2011, dated 2013).

Amino acid sequences for entries named in this document (tags omitted). A change or cut given only in a name is not applied to a line headed by its entry.
UniProt P42338: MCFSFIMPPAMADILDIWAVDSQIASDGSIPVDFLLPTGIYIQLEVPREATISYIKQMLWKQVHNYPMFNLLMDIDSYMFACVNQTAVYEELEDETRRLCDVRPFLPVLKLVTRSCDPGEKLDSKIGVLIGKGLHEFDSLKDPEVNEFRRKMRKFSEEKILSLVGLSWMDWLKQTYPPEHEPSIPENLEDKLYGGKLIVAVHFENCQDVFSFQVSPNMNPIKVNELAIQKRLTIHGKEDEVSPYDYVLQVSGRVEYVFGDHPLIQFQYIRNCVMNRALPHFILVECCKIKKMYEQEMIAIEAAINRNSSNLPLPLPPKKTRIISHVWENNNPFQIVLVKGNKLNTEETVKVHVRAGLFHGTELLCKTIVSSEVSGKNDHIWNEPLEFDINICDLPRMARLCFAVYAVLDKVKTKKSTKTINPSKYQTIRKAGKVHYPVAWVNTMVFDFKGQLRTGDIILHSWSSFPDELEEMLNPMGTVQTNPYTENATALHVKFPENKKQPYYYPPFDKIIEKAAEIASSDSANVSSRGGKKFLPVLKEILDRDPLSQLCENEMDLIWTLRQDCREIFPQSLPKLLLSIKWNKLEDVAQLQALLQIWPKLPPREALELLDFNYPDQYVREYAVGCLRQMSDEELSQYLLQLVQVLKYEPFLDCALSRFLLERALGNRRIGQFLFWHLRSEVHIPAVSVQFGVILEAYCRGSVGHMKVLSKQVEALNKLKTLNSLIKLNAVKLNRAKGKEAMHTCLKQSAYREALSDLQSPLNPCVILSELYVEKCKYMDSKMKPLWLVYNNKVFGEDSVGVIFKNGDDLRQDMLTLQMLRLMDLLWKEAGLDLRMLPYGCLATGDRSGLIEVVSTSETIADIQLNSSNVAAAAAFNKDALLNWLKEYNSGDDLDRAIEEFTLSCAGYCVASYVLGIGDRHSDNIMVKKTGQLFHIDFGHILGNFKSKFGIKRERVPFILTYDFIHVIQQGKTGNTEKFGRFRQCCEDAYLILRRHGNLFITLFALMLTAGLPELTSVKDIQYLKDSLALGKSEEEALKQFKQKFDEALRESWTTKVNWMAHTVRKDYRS
UniProt O00329: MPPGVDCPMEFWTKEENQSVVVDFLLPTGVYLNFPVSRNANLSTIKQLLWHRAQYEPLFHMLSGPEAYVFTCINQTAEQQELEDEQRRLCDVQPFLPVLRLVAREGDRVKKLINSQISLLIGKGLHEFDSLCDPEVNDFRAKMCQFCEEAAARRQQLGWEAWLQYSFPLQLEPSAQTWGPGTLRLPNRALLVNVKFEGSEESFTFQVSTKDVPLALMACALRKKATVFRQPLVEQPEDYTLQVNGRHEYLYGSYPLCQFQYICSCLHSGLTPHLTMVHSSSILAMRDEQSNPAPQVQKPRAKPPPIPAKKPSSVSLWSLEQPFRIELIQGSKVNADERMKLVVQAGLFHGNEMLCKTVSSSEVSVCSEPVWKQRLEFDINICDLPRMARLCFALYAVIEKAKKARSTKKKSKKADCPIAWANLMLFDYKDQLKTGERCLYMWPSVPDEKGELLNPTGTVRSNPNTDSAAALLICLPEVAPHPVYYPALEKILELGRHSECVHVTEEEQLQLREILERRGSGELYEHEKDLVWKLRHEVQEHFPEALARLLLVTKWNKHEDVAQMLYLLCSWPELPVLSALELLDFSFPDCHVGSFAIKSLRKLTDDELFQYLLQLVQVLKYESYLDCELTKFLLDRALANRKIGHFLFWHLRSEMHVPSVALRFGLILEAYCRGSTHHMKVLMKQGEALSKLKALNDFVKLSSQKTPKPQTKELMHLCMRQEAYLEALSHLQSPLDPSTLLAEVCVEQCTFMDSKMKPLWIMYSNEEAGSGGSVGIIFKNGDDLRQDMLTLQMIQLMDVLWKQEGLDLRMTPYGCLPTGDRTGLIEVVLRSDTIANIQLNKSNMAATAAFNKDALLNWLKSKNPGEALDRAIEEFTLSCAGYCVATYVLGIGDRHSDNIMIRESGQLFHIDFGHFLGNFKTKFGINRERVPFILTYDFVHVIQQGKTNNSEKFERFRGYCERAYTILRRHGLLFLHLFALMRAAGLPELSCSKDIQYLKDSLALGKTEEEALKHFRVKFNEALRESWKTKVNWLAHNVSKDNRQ

What was measured:
PI3Kβ = PI3Kβ (Homo sapiens, UniProt P42338); test: In vitro enzyme inhibition assay (Kinase Glo), PI3Kβ; assay type: biochemical
Protocol: (§1) (a) In Vitro Enzyme Inhibition Assay
(§2) The inhibition of PI3Kβ, PI3Kα, PI3Kγ and PI3Kδ was evaluated in a Kinase Glo based enzyme activity assay using human recombinant enzymes. The assay measures depletion of ATP after incubation with enzyme, PIP2 and ATP plus compound. ATP at the end of the reaction is detected by addition of Kinase Glo reagent, in this the Ultra Glo™ luciferase (Promega) uses the ATP as a substrate to catalyze the mono-oxygenation of luciferin and the generation of light. A direct relationship exists between the luminescence measured with the Kinase-Glo Plus Reagent and the amount of ATP remaining in a completed kinase reaction and luminescence is inversely related to kinase activity. Twelve different compound concentrations were tested and raw data from the inhibition of PI3Kβ, PI3Kα, PI3Kγ and PI3Kδ was plotted versus inhibitor concentration.
(§3) Compounds in 100% DMSO were added to assay plates by acoustic dispensing. PI3β was added in a Tris buffer (50 mM Tris pH7.4, 0.05% CHAPS, 2.1 mM DTT, and 10 mM MgCl2) and allowed to preincubate with compound for 20 min prior to addition of substrate solution containing PIP2 and ATP. The enzyme reaction was stopped after 80 min by the addition of Kinase Glo detection solution. […]
(§4) IC50 values were calculated using a log curve fitting to a non-linear regression package, fitting raw data to inhibitor concentration.

PI3Kδ = PI3Kδ (Homo sapiens, UniProt O00329); test: In vitro enzyme inhibition assay (Kinase Glo), PI3Kδ; assay type: biochemical
Protocol: as §1, §2, §3, §4

Work on CN(C)C(=O)c1cc(C2CCCN2c2ccccc2)c2oc(N3CCOCC3)cc(=O)c2c1 (centres unmarked) [Example 2.03, N,N-dimethyl-2-morpholino-4-oxo-8-(1-phenylpyrrolidin-2-yl)-4H-chromene-6-carboxamide] yielded an IC50 (PI3Kβ) of 13 nM and an IC50 (PI3Kδ) of 14 nM.
